Key:
[1] = tested on: alternative complement pathway hemolytic activity (AH50); test: AH50 hemolytic assay on serum after single IV infusion; format: in vivo, human; conditions: single IV 2300 mg
Experimental: AH50 Method: AH50 was measured by a hemolytic assay based on lysis of rabbit red blood cells (RA) due to activation of complement on the cell's surface. The AH50 (50% Alternative Complement Hemolytic dose) was determined for each component by adding a limiting amount of the test serum or plasma. For this assay, the buffers are created such as to block activity of the classical pathway, which requires calcium. Serial dilutions of the test specimen were mixed with equal volumes of the RA. This functional assay measured the amount of hemoglobin that was released when the target cells were lysed by the action of complement, and from this, the percentage of the cells that had been lysed was calculated. The major peak of the hemoglobin spectrum was read at 415 nm wavelength. For each assay the run was verified with a five-point standard and five points of characterized QC control.
AH50 Calculations: For verifiable continuity between assay runs, the AH50 assay was performed using a human serum standard with known AH50 activity. Serial dilutions of the standard were used to establish its 50% lysis point (the point where the best-fit line formed from the percent lysis (Y) versus the reciprocal of the dilution of serum (X) reaches 50%). […] Each specimen from the study was diluted in the same manner and individual 50% lysis points determined by linear regression.

Sequences of proteins named here, by UniProt entry; tags and fusion partners are left off. Residues count along the entry.
UniProt P01024, 23-667 limits assumed: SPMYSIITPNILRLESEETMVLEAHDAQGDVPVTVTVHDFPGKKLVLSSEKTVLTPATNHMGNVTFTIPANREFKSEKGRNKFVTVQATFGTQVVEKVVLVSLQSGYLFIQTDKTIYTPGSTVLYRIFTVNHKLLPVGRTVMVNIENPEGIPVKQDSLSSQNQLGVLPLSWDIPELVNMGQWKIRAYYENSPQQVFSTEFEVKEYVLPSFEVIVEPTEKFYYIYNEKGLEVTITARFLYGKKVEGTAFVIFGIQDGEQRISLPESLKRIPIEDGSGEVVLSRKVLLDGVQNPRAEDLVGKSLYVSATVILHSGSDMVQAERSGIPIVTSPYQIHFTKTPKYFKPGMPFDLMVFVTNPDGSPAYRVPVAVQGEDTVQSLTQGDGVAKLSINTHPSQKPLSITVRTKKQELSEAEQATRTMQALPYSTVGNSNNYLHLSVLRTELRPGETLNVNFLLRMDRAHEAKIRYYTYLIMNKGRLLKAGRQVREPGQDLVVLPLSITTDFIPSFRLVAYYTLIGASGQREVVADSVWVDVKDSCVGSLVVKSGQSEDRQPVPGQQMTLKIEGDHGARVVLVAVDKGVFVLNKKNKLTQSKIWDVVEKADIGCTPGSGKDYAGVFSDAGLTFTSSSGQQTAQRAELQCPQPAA
UniProt P01024, 672-1663 partner limits assumed: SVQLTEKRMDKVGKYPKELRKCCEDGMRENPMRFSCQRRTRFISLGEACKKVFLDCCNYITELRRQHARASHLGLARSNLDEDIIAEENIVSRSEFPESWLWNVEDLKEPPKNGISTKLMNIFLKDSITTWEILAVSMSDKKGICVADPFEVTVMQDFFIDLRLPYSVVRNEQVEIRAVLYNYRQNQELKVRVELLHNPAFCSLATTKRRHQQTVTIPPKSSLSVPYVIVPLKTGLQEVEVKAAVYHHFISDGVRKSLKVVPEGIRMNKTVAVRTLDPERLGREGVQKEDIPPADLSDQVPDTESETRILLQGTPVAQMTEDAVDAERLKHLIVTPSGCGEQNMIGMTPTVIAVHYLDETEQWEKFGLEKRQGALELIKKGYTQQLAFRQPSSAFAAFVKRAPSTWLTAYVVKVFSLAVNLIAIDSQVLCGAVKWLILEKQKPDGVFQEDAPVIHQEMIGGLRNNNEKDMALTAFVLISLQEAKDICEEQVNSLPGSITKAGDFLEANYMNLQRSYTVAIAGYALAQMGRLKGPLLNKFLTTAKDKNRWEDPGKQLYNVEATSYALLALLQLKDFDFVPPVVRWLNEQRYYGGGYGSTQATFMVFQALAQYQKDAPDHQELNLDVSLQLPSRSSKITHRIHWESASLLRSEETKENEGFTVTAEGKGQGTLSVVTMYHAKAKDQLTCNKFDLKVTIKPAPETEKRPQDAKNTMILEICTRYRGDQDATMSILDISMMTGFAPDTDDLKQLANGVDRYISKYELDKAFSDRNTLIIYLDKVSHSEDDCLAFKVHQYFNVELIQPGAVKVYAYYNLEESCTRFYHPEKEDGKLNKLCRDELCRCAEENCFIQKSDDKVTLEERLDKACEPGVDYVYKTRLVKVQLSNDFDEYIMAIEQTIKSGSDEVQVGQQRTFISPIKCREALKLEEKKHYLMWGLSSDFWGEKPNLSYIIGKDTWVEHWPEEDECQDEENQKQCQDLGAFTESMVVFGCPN

C3 = target: T1, C3 (Homo sapiens, UniProt P01024); test: C3 levels (turbidimetric immunoassay) after single IV infusion; format: in vivo; conditions: post-dosing start
T1 construct: from tissue; host or cells: blood samples of healthy human volunteers
Experimental: C3: C3 levels were measured on the BindingSite SPA Plus. The SPA plus measures protein concentration by a turbidimetric immunoassay. The specimen to be tested is mixed with a fixed concentration of excess polyclonal antibodies to the analyte of interest. This leads to the formation of large antigen-antibody immune complexes. The specimen is diluted to reach a point where the antigen concentration is near the equivalent point with the antibody. When light is passed through the suspension, a portion is transmitted and focused onto a photodiode by an optical lens system. The amount of transmitted light is indirectly proportional to the specific protein concentration in the sample. Concentrations are automatically calculated by reference to a calibration curve. The amount of analyte (C3 which is causing agglutination) in the sample can therefore be easily determined. C3 concentrations are expressed as g/L.
C3 Calculations: For turbidimetric assays, the change in the amount of light absorbed (inverse of amount transmitted) is dependent on the amount of agglutination between the analyte and the specific antibodies. Thereby, the amount of analyte (C3 which is causing agglutination) in the sample is determined.

## Poly(oxy-1,2-ethanediyl), α-hydro-ω-hydroxy-, 15,15′-diester with N-acetyl-L-isoleucyl-L-cysteinyl-L-valyl-1-methyl-L-tryptophyl-L-glutaminyl-L-α-aspartyl-L-tryptophylglycyl-L-alanyl-L-histidyl-L-arginyl-L-cysteinyl-L-threonyl-2-[2-(2-aminoethoxy)ethoxy]acetyl-N^6-carboxy-L-lysinamide cyclic (2-->12)-(disulfide) [PEG]
[1]
  time for which decrease in mean AH50 was maintained: ≥ 168 h
C3; all PEG groups except 600 mg
  time of peak mean C3: 168 h
C3; single IV 600 mg
  time of peak mean C3: 120 h
